Target: C-C chemokine receptor type 5 (Homo sapiens, UniProt P51681)
Experiment: Inhibition of RANTES binding to the human C-C chemokine receptor type 5 (CCR5)

Protein sequences, listed by entry. Tags and fused reporters are not part of them.
UniProt P51681, whole entry: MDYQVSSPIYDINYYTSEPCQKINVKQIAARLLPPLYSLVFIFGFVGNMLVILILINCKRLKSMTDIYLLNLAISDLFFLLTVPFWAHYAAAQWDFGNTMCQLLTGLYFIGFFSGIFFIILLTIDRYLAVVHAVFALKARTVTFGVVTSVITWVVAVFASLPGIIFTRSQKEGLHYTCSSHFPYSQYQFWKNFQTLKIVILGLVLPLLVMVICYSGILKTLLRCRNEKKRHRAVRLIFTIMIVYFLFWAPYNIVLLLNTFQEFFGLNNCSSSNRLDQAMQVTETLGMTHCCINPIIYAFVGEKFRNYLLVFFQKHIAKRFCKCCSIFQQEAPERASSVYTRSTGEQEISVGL

| Compound | Ki [pM] |
| --- | --- |
| CCO/N=C(/c1ccc(Br)cc1)C1CCN(C2(C)CCN(C(=O)c3c(Br)cncc3Br)CC2)CC1 | 300 |
| CCO/N=C(/c1ccc(Br)cc1)C1CCN(C2(C)CCN(C(=O)c3c(Cl)cncc3Cl)CC2)CC1 | 400 |

Source: ChEMBL document CHEMBL1144903, “Generation of predictive pharmacophore models for CCR5 antagonists: study with piperidine- and piperazine-based compounds as a new class of HIV-1 entry inhibitors” (J Med Chem, 2003)
